Assay results taken from patent US8258098B2, “Antitumoral treatments” (Pharma Mar, S.A., priority 2006, dated 2012).

Experiments:
Test in all cases: Net tumor volume in tumor xenografts
Assay type in all cases: in vivo, female athymic mice
[1] = tested on: LOX-IMVI melanoma tumor xenografts; settings: IL-2 2 μg/mouse i.p., INF-α 200,000 U/mouse s.c.
Source text: (§1) Athymic nude female mice were received from Harlan Sprague Dawley, Madison, Wis. at 4-5 weeks of age. Mice were acclimated to the laboratory for at least one week prior to implantation of tumor. Animals were housed in static cages with food and water allowed ad libitum. Experimental animals were implanted with either tumor fragments derived from transplantation established human tumors or with cells obtain directly from in vitro culture. Tumors were implanted subcutaneously on the right flank on Day 0.
(§2) Tumor size measurements were recorded twice weekly beginning on day 4 or 5 using vernier calipers. The formula to calculate volume for a prolate ellipsoid was used to estimate tumor volume from 2-dimensional tumor measurements: tumor volume (mm^3)=(length×width^2)÷2. Assuming unit density, volume was converted to weight (i.e., 1 mm^3=1 mg). […] Treatments were initiated and administered on an individual body weight basis. A dose range finding study was performed on each tumor model to determine the appropriate dose level of each compound used in the combination studies.

[2] = tested on: MRI-H187 melanoma tumor xenografts; settings: Aplidine 50 μg/kg i.p., IL-2 2 μg/mouse i.p., INF-α 200,000 U/mouse s.c.
Source text: as §1, §2

[3] = tested on: MRI-H121 renal tumor xenografts; settings: Aplidine 25 μg/kg i.p., Avastin 2.5 mg/kg i.p., IL-2 1 μg/mouse i.p., INF-α 200,000 U/mouse s.c.
Source text: (§3) The purpose of this study was to evaluate the antitumor activity of Aplidine when administered with an antitumoral standard agent, both administered using multiple dosing schedule in several types of tumor xenografts in female athymic mice.
as §1
(§4) Tumor size measurements were recorded twice weekly beginning on day 4 or 5 using vernier calipers. The formula to calculate volume for a prolate ellipsoid was used to estimate tumor volume from 2-dimensional tumor measurements: tumor volume (mm^3)=(length×width^2)÷2. Assuming unit density, volume was converted to weight (i.e., 1 mm^3=1 mg). When tumors reached an approximate volume range of 100±15 mg, mice were randomized into treatment and control groups. Treatments were initiated and administered on an individual body weight basis. A dose range finding study was performed on each tumor model to determine the appropriate dose level of each compound used in the combination studies.
(§5) Table 10 and FIGS. 77, 78 and 79 show kinetics of net tumor volume after initiation of treatment with aplidine (APL) as single agent or in combination with Bevacizumab (Avastin®), Interleukin-2 (IL-2) and Interferon-α 2a (INF-α) in MRI-H121 renal tumor xenografts. Aplidine was administered every day for 9 consecutive days by i.p injection, saline control (sterile saline) every day for 9 consecutive days by i.p injection, Bevacizumab (Avastin®) every 3 days for a total of 4 treatments by i.p. injection, IL-2 every day during 5 weekdays (Monday-Friday) for 3 weeks by i.p. injection and INF-α every day during 5 weekdays (Monday-Friday) for 3 weeks by s.c. injection.

[4] = tested on: CaKi-1 renal tumor xenografts; settings: Aplidine 50 μg/kg i.p., Avastin 5.0 mg/kg i.p., IL-2 2 μg/mouse i.p., INF-α 200,000 U/mouse s.c.
Source text: as §3, §1, §4
as §5, with “9” for “10”, “74, 75” for “77, 78”, “76” for “79”, “CaKi-1” for “MRI-H121”

## INF-α: Interferon-α 2a (INF-α), standard of care agent
[1]; DAY 6, Aplidine 50 μg/kg i.p.
  Net Tumor Volume ± S.E.M.: 110 ± 4 mg
[1]; DAY 9, Aplidine 50 μg/kg i.p.
  Net Tumor Volume ± S.E.M.: 329 ± 39 mg
[1]; DAY 13, Aplidine 50 μg/kg i.p.
  Net Tumor Volume ± S.E.M.: 1452 ± 252 mg
[1]; DAY 16, Aplidine 50 μg/kg i.p.
  Net Tumor Volume ± S.E.M.: 2188 ± 465 mg
[2]; MRI-H187, DAY 21
  Net Tumor Volume ± S.E.M.: 115 ± 5 mg
[2]; MRI-H187, DAY 23
  Net Tumor Volume ± S.E.M.: 169 ± 19 mg
[2]; MRI-H187, DAY 27
  Net Tumor Volume ± S.E.M.: 272 ± 40 mg
[2]; MRI-H187, DAY 30
  Net Tumor Volume ± S.E.M.: 398 ± 54 mg
[2]; MRI-H187, DAY 34
  Net Tumor Volume ± S.E.M.: 653 ± 99 mg
[2]; MRI-H187, DAY 37
  Net Tumor Volume ± S.E.M.: 776 ± 115 mg
[2]; MRI-H187, DAY 40
  Net Tumor Volume ± S.E.M.: 912 ± 149 mg
[2]; MRI-H187, DAY 42
  Net Tumor Volume ± S.E.M.: 1104 ± 202 mg
[2]; MRI-H187, DAY 48
  Net Tumor Volume ± S.E.M.: 1521 ± 311 mg
[2]; MRI-H187, DAY 51
  Net Tumor Volume ± S.E.M.: 1978 ± 450 mg
[3]; MRI-H121, DAY 11
  Net Tumor Volume ± S.E.M.: 110 ± 6 mg
[3]; MRI-H121, DAY 14
  Net Tumor Volume ± S.E.M.: 166 ± 15 mg
[3]; MRI-H121, DAY 18
  Net Tumor Volume ± S.E.M.: 331 ± 32 mg
[3]; MRI-H121, DAY 19
  Net Tumor Volume ± S.E.M.: 341 ± 32 mg
[3]; MRI-H121, DAY 21
  Net Tumor Volume ± S.E.M.: 371 ± 37 mg
[3]; MRI-H121, DAY 26
  Net Tumor Volume ± S.E.M.: 591 ± 69 mg
[3]; MRI-H121, DAY 29
  Net Tumor Volume ± S.E.M.: 704 ± 91 mg
[3]; MRI-H121, DAY 32
  Net Tumor Volume ± S.E.M.: 809 ± 96 mg
[3]; MRI-H121, DAY 35
  Net Tumor Volume ± S.E.M.: 898 ± 108 mg
[3]; MRI-H121, DAY 39
  Net Tumor Volume ± S.E.M.: 1457 ± 165 mg
[3]; MRI-H121, DAY 42
  Net Tumor Volume ± S.E.M.: 1747 ± 210 mg
[4]; CaKi-1, DAY 13
  Net Tumor Volume ± S.E.M.: 105 ± 3 mg
[4]; CaKi-1, DAY 15
  Net Tumor Volume ± S.E.M.: 162 ± 14 mg
[4]; CaKi-1, DAY 19
  Net Tumor Volume ± S.E.M.: 239 ± 28 mg
[4]; CaKi-1, DAY 22
  Net Tumor Volume ± S.E.M.: 312 ± 43 mg
[4]; CaKi-1, DAY 26
  Net Tumor Volume ± S.E.M.: 496 ± 60 mg
[4]; CaKi-1, DAY 29
  Net Tumor Volume ± S.E.M.: 613 ± 92 mg
[4]; CaKi-1, DAY 33
  Net Tumor Volume ± S.E.M.: 734 ± 99 mg
[4]; CaKi-1, DAY 36
  Net Tumor Volume ± S.E.M.: 867 ± 86 mg
[4]; CaKi-1, DAY 41
  Net Tumor Volume ± S.E.M.: 1125 ± 111 mg
[4]; CaKi-1, DAY 47
  Net Tumor Volume ± S.E.M.: 1473 ± 149 mg
[4]; CaKi-1, DAY 50
  Net Tumor Volume ± S.E.M.: 1777 ± 197 mg
